# Reference: patent publication US20100254928A1, “NOVEL COMPOSITION CONTAINING OZONIZED SURFACTANT” (priority 2007, published 2010)
# Experiment: Temporal change in oxidizing property (iodine titration method)
# Type: physicochemical
# Settings: 1% aqueous solution, 25° C.
# Source text: After deaerating the obtained aqueous ozonized surfactant solution to remove dissolved ozone gas by helium purging, the oxidizing property of the aqueous ozonized surfactant solution can be determined by the iodine titration method (see Non Patent Literature 1). Whether or not the aqueous ozonized surfactant solution maintains a function as a surfactant can be evaluated by checking whether or not frothing, which is a characteristic of surfactants, occurs when the solution is agitated or vibrated.
# Meanwhile, oxygen was supplied from an oxygen cylinder into an ozonizer (ozonizer GR-RB made by Sumitomo Precision Products Co., Ltd.) at an oxygen flow rate of 0.3 L/min to ozonize the oxygen to produce ozone gas. […] After deaerating the aqueous solution that had undergone about 30-minute ozone treatment to remove dissolved ozone gas by helium purging, oxidizing property of the aqueous solution was determined by the iodine titration method. […] Further, a temporal change in the oxidizing property of the aqueous solution was determined by the iodine titration method at 25° C. for 20 days. As a result, the percentage of oxidizing property measured after 20 days to that measured just after preparation was 109%. […]
substance,measurement,value
Ozonized decaglycerin monooleate [Example 6],percentage of oxidizing property measured after 180 days to that measured just after preparation,100%
